Reference: BindingDB's records for 30543421, “Development of Novel Quinoxaline-Based κ-Opioid Receptor Agonists for the Treatment of Neuroinflammation” (2019)
pEC50: −log10 of the molar value.

Protein sequences, listed by entry. Tags and fused reporters are not part of them.
UniProt P41145, whole entry: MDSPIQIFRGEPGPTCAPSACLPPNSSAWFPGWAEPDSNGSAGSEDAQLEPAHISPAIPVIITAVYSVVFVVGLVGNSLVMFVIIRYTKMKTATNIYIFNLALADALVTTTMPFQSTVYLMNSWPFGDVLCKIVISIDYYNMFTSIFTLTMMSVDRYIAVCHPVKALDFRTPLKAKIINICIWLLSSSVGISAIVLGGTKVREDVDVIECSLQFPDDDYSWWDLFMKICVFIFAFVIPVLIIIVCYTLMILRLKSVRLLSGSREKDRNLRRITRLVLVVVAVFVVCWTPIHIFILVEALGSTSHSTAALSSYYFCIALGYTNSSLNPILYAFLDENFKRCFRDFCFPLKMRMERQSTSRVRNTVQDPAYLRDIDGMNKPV

Molecular target: Kappa-type opioid receptor (Homo sapiens, UniProt P41145)
Assay: ASSAY_NAME: ChEMBL_1871643 (CHEMBL4372810) DESCRIPTION: Agonist activity at Tango-KOR (unknown origin) expressed in HTLA cells harboring TEV-fused-beta-arrestin 2 assessed as increase in beta arrestin 2 recruitment after overnight incubation by BrightGlo reagent based assay

With `O=C(Cc1ccc(Cl)c(Cl)c1)N1CCN[C@H]2CCC[C@H](N3CCCC3)[C@H]21` the pEC50 was 8.42.
